Protein sequences, listed by entry. Tags and fused reporters are not part of them. Lines headed by an entry give the natural chain unless they say otherwise; changes in a name come on top.
UniProt P16050: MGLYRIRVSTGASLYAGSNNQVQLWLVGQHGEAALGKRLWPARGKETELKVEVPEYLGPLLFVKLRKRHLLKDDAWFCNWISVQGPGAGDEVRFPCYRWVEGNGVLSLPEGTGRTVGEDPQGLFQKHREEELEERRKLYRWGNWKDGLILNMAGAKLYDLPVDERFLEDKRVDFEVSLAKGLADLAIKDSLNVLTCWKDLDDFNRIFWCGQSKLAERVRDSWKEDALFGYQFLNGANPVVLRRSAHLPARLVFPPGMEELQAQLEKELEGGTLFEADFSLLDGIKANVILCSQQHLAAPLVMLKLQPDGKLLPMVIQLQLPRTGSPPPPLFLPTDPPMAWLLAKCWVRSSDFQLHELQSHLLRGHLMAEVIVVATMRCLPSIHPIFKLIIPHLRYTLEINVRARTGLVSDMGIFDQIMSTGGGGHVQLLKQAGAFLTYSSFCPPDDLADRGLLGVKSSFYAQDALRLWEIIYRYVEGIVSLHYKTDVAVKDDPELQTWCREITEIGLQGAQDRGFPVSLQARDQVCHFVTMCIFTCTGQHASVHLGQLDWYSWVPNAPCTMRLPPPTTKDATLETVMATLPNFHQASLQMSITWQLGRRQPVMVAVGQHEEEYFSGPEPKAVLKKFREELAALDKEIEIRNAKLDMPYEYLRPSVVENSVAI

In US20060106014A1, “Methods for treating diabetes” (priority 2004, published 2006):

Experiments:
15-lipoxygenase = 15-lipoxygenase (Homo sapiens, UniProt P16050); details: background; cited from earlier work
[1] = test system: NIDDM male mice (C57BLKS/J-m+/+Lepr db); test: Therapeutic study: serum glucose levels in diabetic animals; format: in vivo; details: 30 mg/kg, i.p. twice daily, p<0.01
Method: In vivo evaluation of the role of dual inhibitor of both 5-LO and 12/15-LO enzymes in the reduction of serum glucose levels and insulin was performed in C57BLKs/J-m+/+Lepr db mice, a non-insulin dependent diabetic mellitus (NIDDM) model, as described in Examples. […] […].
Non-insulin dependent diabetic mellitus (NIDDM) male mice (C57BLKS/J-m+/+Lepr db), weighing 45±5 g (10 weeks of age) and provided by Institute for Animal Reproduction (IAR, Japan), were used.
Groups of 10 non-insulin dependent diabetic mellitus (NIDDM) male mice (C57BLKS/J-m+/+Lepr db), weighing 45±5 g and 10-weeks-old, were used. […] Using blood samples collected from the orbital sinus, pre-treatment serum glucose and insulin levels were determined 24 hours prior to the first dosing on day 0. Post-treatment glucose and insulin levels were detected 4 hours after dosing on days 11 and 14. […] Serum glucose and Insulin (on days 0, 11 and 14) levels were determined by enzymatic (Mutaratase-GOD) and ELISA (mouse insulin assay kit) methods, respectively. The percentage of post-treatment relative to pre-treatment group values obtained on days 11 and 14 were analyzed using One Way ANOVA followed by Dunnett's test for comparison between vehicle and treated groups. […]

c1ccc2c(c1)SCc1c-2[nH]c2ccccc12 [B, PD 146176, reference compound]
15-lipoxygenase inhibition / specificity as reported in the literature (15-lipoxygenase): relatively specific | reduction in serum glucose relative to the respective vehicle control group (FIG. 2) [1]: reduction in serum glucose
